Screens (PubChem BioAssay)
miR122 inh – miR-122 inhibition in Huh7 cells; Huh7 miR-122 Renilla luciferase sensor, 48 h; neutral wells = 0, positive control = 100; 0.3% of 340,000 active; activation (reporter increase), % at 12.5 µM; AID 602342;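 active = mean replicate activation score at least 90 and every replicate individually at or above 90; inconclusive = only one of the two criteria met; inactive = neither criterion met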;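 note: higher luciferase means less miR-122 activity so hits act as miR-122 inhibitors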
PGC1a acetyl inh – modulators of PGC1a acetylation; U2OS PGC1a acetylation, AlphaScreen anti-acetyl-lysine; with virally co-expressed GCN5 acetyltransferase; 0.17% of 350,000 active; inhibition, % at 15.6 µM; AID 651687;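 active = every replicate shows inhibition of at least 40%; inconclusive = mean inhibition at least 40% but some replicate below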;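 note: 0% = neutral control wells and 100% = positive control wells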
Yeast UUG start – modulators of start codon recognition fidelity in yeast. S. cerevisiae UUG-firefly luciferase reporter, luminescence/redox ratio. activity score, % at 18.7 µM. 0.13% of 350,000 active. AID 602363;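 active = replicate mean at a twofold rise or more, about +100% in these data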;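 also: firefly luciferase made from a UUG start codon reports start codon fidelity; reporter light over untreated wells divided by growth signal over untreated wells; some hits fall short of that in this replicate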
Cneo AK release – causes C. neoformans cell lysis | adenylate kinase release luminescence, 4 h; normalised: neutral wells 0, clomiphene wells 100 | lysis activity, % at 15 µM | 0.2% of 360,000 active | AID 651654;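 active = mean lysis activity across replicates of at least 80%, whatever share of replicates individually reach that level; inactive = mean lysis activity below 80%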
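read-out = cell lysis signal | test system = log-phase Cryptococcus neoformans yeast cells | input = cells at 5 × 10^6 per mL | medium = fresh YPD growth medium | signal = luminescent adenylate kinase detection reagent | timing = 4 h at 37 °C static, read 1 h later | dosing = single dose | controls = Clomiphene as positive lysis control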
Env fusion inh – blocks HIV Env-driven cell-cell fusion; HeLa-JRFL Env/CEM21 cell fusion, luciferase; 1.1% of 360,000 active; AID 651610; inhibition, % at 12.3 µM;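 active = mean replicate inhibition score of at least 50 and every replicate individually at or above 50; inconclusive = only one of the two criteria met; inactive = mean below 50 and not all replicates reaching 50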;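 note: 0% = plate neutral controls and 100% = maraviroc near 300 nM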
FN deposition inh – fibronectin deposition inhibition; AID 743247; inhibition, % at 12.6 µM; 0.086% of 350,000 active; AH1F fibroblasts, Alexa488-fibronectin deposition fluorescence, overnight;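 active = mean inhibition across replicates of 30% or more, regardless of how many single replicates reach that level; inconclusive = mean under 30% yet at least half of replicates reach 30%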;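 note: positive control wells lacked labelled fibronectin entirely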
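Assay system: AH1F fibroblast monolayer, labelled fibronectin deposition. Amount: 10000 cells per well. Also added: labelled fibronectin 24 nM. Compound: single-point pinned compound. Incubation: cell attachment 1 h, compound and FN exposure overnight. Detection: fluorescence after three HBSS washes, excitation 485 nm, emission 525 nm. Read-out: inhibition of fibronectin deposition signal.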
The depositor's hits bear a star; ? = inconclusive; . = no result given; [ ] = another dose, or the depositor's remark. The list is not random: actives were taken first. Their share in the collection is about 1.5%.

molecule,miR122 inh,PGC1a acetyl inh,Yeast UUG start,Cneo AK release,Env fusion inh,FN deposition inh
CC(C)CN(C(=O)COC(=O)C12CC3CC(CC(O)(C3)C1)C2)c1c(N)n(Cc2ccccc2)c(=O)[nH]c1=O,-4,-8,3,1,.,-2
Cc1cc(SCC(=O)N(CC(C)C)c2c(N)n(CC(C)C)c(=O)[nH]c2=O)nc2ccccc12,-2,9,-8,-1,2,0
CCOC(=O)Cc1csc(Nc2c(C)n(C)n(-c3ccccc3)c2=O)n1,4,-8,-1,2,9,4
CC(=O)N1CCc2cc(S(=O)(=O)NCCCN3CCN(Cc4ccccc4)CC3)ccc21,302*,5,8,-2,-3,12
COc1ccc(OC)c(CN2CCC(C(=O)N3CCOCC3)CC2)c1,-1,.,-17,1,5,7
CCOC(=O)c1c(CSc2ccc(C)cc2)n(C)c2cc(Br)c(O)c(CN(C)C)c12,10,-19,6,8,87*,3
CCOC(=O)c1c(CSc2ccsc2)n(C)c2cc(Br)c(O)c(CN(C)C)c12,.,-13,.,.,87*,-7
CCOC(=O)c1c(CSc2ccccc2)n(C)c2cc(Br)c(O)c(CN(C)C)c12,8,-17,.,.,67*,-8
CCOC(=O)c1c(CN2CCCCC2)n(C)c2cc(Br)c(O)c(CN(C)C)c12,-2,-13,0,-3,.,.
Cc1cccc(-n2ncc3c(N4CCOCC4)ncnc32)c1,5,7,-76,-4,-18,-7
CCc1ccc(OCCNC(=O)c2ccccc2SCc2ccc(F)cc2)cc1,-3,-4,-1,0,58*,19
CCN(CC)C(=O)c1csc(Nc2cccc3ccccc23)n1,-2,-2,-21,-2,8,6
CCCCc1c(-c2ccccc2OC)ncn1C(C)c1ccccc1 (stereo not given),.,.,.,.,76*,12
CCC1=C(CC2NCCc3ccccc32)CC2c3cc(OC)c(OC)cc3CCN2C1 (stereo not given),-12,34,.,.,-410,-2
CC1C(=O)N(Cc2ccc([N+](=O)[O-])cc2)c2ccccc2N1C(=O)c1c(F)cccc1F (stereo not given),4,-7,-4,10,78*,-1
Cn1nc(C(=O)Nc2ccc3c(c2)OCCO3)c2ccccc2c1=O,-3,-1,-22,0,.,-4
C/C(=N\Nc1ccc(S(=O)(=O)Nc2ccc(Cl)cc2)cc1[N+](=O)[O-])c1ccc(N2CCOCC2)cc1,170*,.,-17,-2,-17,-7
C/C(=N\Nc1ccc(S(=O)(=O)Nc2ccccc2)cc1[N+](=O)[O-])c1ccc(N2CCOCC2)cc1,22,.,.,.,5,3
O=C(COC(=O)COc1ccccc1)NCc1ccc2c(c1)OCO2,2,0,-6,-5,1,6
Cc1cccc(NS(=O)(=O)c2cccc(C(=O)N3CCCCCC3)c2)c1,72,0,-9,-3,.,3

4 entries from above, reformatted:
SMILES: CC1C(=O)N(Cc2ccc([N+](=O)[O-])cc2)c2ccccc2N1C(=O)c1c(F)cccc1F (stereo not given)
  miR122 inh = 4 | PGC1a acetyl inh = -7 | Yeast UUG start = -4 | Cneo AK release = 10 | Env fusion inh = 78* | FN deposition inh = -1
SMILES: CCOC(=O)c1c(CSc2ccccc2)n(C)c2cc(Br)c(O)c(CN(C)C)c12
  miR122 inh = 8 | PGC1a acetyl inh = -17 | Yeast UUG start = . | Cneo AK release = . | Env fusion inh = 67* | FN deposition inh = -8
SMILES: Cc1cc(SCC(=O)N(CC(C)C)c2c(N)n(CC(C)C)c(=O)[nH]c2=O)nc2ccccc12
  miR122 inh = -2 | PGC1a acetyl inh = 9 | Yeast UUG start = -8 | Cneo AK release = -1 | Env fusion inh = 2 | FN deposition inh = 0
SMILES: CCOC(=O)c1c(CSc2ccc(C)cc2)n(C)c2cc(Br)c(O)c(CN(C)C)c12
  miR122 inh = 10 | PGC1a acetyl inh = -19 | Yeast UUG start = 6 | Cneo AK release = 8 | Env fusion inh = 87* | FN deposition inh = 3

New compounds follow
Labels used below – A = miR122 inh; B = PGC1a acetyl inh; C = Yeast UUG start; D = Cneo AK release; E = Env fusion inh; F = FN deposition inh
> Cc1cc(C)c(C)c(S(=O)(=O)Nc2ccc(C(=O)N3CCCC3)cc2)c1C
  A: 135*; B: -1; C: -10; D: 3; E: 6; F: -10

> Cc1cccc(NS(=O)(=O)c2cccc(C(=O)N3CCCCCCC3)c2)c1
  A: 163*; B: 6; C: 2; D: 0; E: 10; F: 5

> O=C(O)CCC(=O)NNC(=O)c1cccc(Br)c1
  A: .; B: .; C: .; D: .; E: -7; F: 0

> CCN(CC)c1ccc(NC(=O)c2ccccn2)cc1S(=O)(=O)Nc1ccccc1OC
  A: 125*; B: -7; C: -5; D: 1; E: 18; F: .

> CCN(CC)c1ccc(NC(=O)COc2ccccc2C#N)cc1S(=O)(=O)Nc1ccccc1OC
  A: 288*; B: -37; C: -21; D: 3; E: -9; F: 3

> COc1ccccc1NS(=O)(=O)c1cc(NC(=O)CNC(=O)c2ccccc2)ccc1C
  A: 14; B: 3; C: 3; D: 5; E: -11; F: -2

> C[C@@H]1CN([C@@H](C)CO)C(=O)Cc2cc(NS(=O)(=O)c3ccc(F)cc3)ccc2O[C@@H]1CN(C)S(=O)(=O)c1ccc(Cl)cc1
  A: 0[16.7 µM]; B: -10; C: -12; D: 1; E: -61[16.7 µM]; F: .

> CC1(C)CC(=O)C=C(Nc2ccc(Cl)cc2)C1
  A: -14; B: 9; C: -9; D: -1; E: 20; F: -4

> CN(C)S(=O)(=O)c1ccc(NS(=O)(=O)/C=C/c2ccccc2)cc1
  A: 165*; B: 0; C: -18; D: -5; E: -24; F: 0

> O=S(=O)(/C=C/c1ccccc1)Nc1ccc(F)cc1
  A: .; B: .; C: .; D: .; E: 8; F: -13

> O=C(/C=C/c1cccc([N+](=O)[O-])c1)OCC(=O)N1CCN(C(=O)c2ccco2)CC1
  A: -1; B: 5; C: -9; D: 1; E: 1; F: -2

> Cc1cc(Cl)ccc1OCC(=O)N1CCCN(C(=O)COc2ccc(Cl)cc2C)CC1
  A: .; B: .; C: .; D: .; E: 115*; F: -1

> Cc1cc(Cl)ccc1OCC(=O)N1CC(C)CC(C)C1 (stereo not given)
  A: -5; B: -7; C: 10; D: 0; E: -37; F: -36

> Cc1ccc2oc(=O)c3cnn(CC(=O)Nc4ccccc4N4CCN(C)CC4)c3c2c1
  A: -5; B: .; C: -10; D: 2; E: 19; F: 13

> CC(C)(C)OC(=O)CC[C@@H](C(=O)N1CCN(C(=O)OC(C)(C)C)CC1)n1cc(C(Cc2ccc(O)cc2)NC(=O)OC(C)(C)C)nn1 (stereo not given in full)
  A: -4; B: .; C: 3; D: -2; E: 62*; F: 5

> COc1ccc(C(=O)Nc2ccc(S(=O)(=O)Nc3nccc(C)n3)cc2)cc1OC
  A: -6; B: 8; C: -16; D: -2; E: -12; F: 1

> O=C(COc1ccc(Cl)cc1Cl)NCCCN1CCOCC1
  A: .; B: ?; C: -5; D: 2; E: -12; F: 0

> CN(C)c1nc(OCCNC(=O)COc2ccc(Cl)cc2Cl)nc(N2CCOCC2)n1
  A: 5; B: .; C: -12; D: 5; E: 41*; F: 0

> Cc1cc(Cl)ccc1OCC(=O)NCCOc1nc(N2CCOCC2)nc(N2CCOCC2)n1
  A: -6; B: -20; C: -5; D: 0; E: 94*; F: 29

> CO[C@H]1CN(C)C(=O)c2ccc(NC(=O)C3CCC3)cc2OC[C@H](C)N(CC2CCCCC2)C[C@@H]1C
  A: .; B: -14; C: .; D: .; E: 92*[16.7 µM]; F: -1

> CCC(=O)Nc1ccc2c(c1)OC[C@H](C)N(CC1CC1)C[C@H](C)[C@H](OC)CN(C)C2=O
  A: .; B: -3; C: -6; D: 5; E: .; F: -2

> CCC(=O)Nc1ccc2c(c1)OC[C@H](C)N(CC1CCCCC1)C[C@H](C)[C@@H](OC)CN(C)C2=O
  A: -8[16.7 µM]; B: -11; C: .; D: .; E: 87*[16.7 µM]; F: -11

> Cc1ccc(-c2ccccc2[C@H]2[C@@H](CO)N(C(=O)Cc3cccnc3)[C@H]2C#N)cc1
  A: .; B: -8; C: .; D: .; E: .; F: -11

> CC(=O)NC(c1ccc(C)cc1)c1cc([N+](=O)[O-])c2cccnc2c1O (stereo not given)
  A: .; B: .; C: .; D: .; E: 48*; F: 8

> CCC(=O)NC(c1ccc(C)cc1)c1cc([N+](=O)[O-])c2cccnc2c1O (stereo not given)
  A: -12; B: 7; C: -16; D: 5; E: 26; F: 0

> COc1ccc(CNC(=O)CCNS(=O)(=O)c2ccc3c(c2)oc(=O)n3C)cc1
  A: .; B: .; C: -16; D: 1; E: .; F: .
